For experiment [1], the target named is Delta mMor1 (recombinant mouse mu-type opioid receptor) (mouse) (UniProt P42866). The experiment in a line: [3H]-diprenorphine radioligand competition on Delta mMor1/Sf9 membranes.
Experiment [2] shares this target. The experiment in a line: [3H]-diprenorphine competition on Delta mMor1/Sf9 membranes in presence of 5 µM XA8633.
Experiment [3] has the same target. The experiment in a line: [3H]-diprenorphine competition on Delta mMor1/Sf9 membranes in presence of mock VHH CA4910.

What is called IC50 is the concentration at which inhibition is half-maximal.

For the substance Dmt1-Dalda (peptide), the IC50 in experiment [1] was determined as 511 nM; in experiment [2], 57 nM; in experiment [3], 550 nM.

The record behind these values is patent US20170183404A1.
